# Hits are enriched below; roughly 1.9% of the tested compounds scored in any of these assays.
# ERp5 block: inhibitors of ERp5-driven insulin aggregation, primary screen, biochemical, turbidity, absorbance 650 nm, single point. Protein disulfide-isomerase A6 (Homo sapiens), Q15084. 90 min. inhibition, % at 9.99 µM. 350,000 tested, 0.05% active;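 active = mean replicate inhibition above about 25%, with every replicate also reaching it, limit read from the data, passing the limit was not always enough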
# PglD inh: C. jejuni PglD acetyltransferase inhibitors, primary screen, biochemical, DTNB colorimetric, single point. 360,000 tested, 0.098% active. inhibition, % at 12.5 µM. purified PglD enzyme, DTNB colorimetric CoA detection; in the data active = inhibition above about 16%, passing the limit was not always enough
# Yeast UUG start: yeast start codon fidelity modulation; actives 0.13% (n = 350,000); activity score, % at 18.7 µM; S. cerevisiae UUG-firefly luciferase reporter, luminescence/redox ratio;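 active = replicate mean at a twofold rise or more, about +100% in these data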;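 note: firefly luciferase made from a UUG start codon reports start codon fidelity; reporter light over untreated wells divided by growth signal over untreated wells; some hits fall short of that in this replicate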
# ARNT-TACC3 inh: disruptors of ARNT/TACC3 protein interaction, primary screen, biochemical, AlphaScreen, single concentration. 390,000 tested, 0.66% active. Transforming acidic coiled-coil-containing protein 3 (Homo sapiens), Q9Y6A5. inhibition, % at 9.99 µM. AlphaScreen His-ARNT PAS-B/GST-TACC3 binding, luminescence; TACC3 fragment carries E629A point mutation. AID 623870, 2012;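 active = mean inhibition of replicates at least 50% and at least half of replicates each reaching 50%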;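 also: 0% = complete ARNT plus TACC3 wells and 100% = ARNT alone without TACC3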
# FGF22 binding: binders of human FGF22 protein, primary screen, FGF22 synaptogenesis inhibitor project, biophysical, thermal shift, single point; AID 651658, 2012; 340,000 tested, 1.5% active; recombinant FGF22 thermal shift, SYPRO orange fluorescence; percent of sucrose octasulfate shift, DMSO zero; Fibroblast growth factor 22 (Homo sapiens), Q9HCT0; activity (Tm shift, normalised), % at 9.99 µM;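 active = mean Tm shift, scaled 0 neutral to 100 positive control, at about 1.3% or above, every replicate too, limit read from the data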
# PDI turbidity: inhibitors of human PDI, primary screen, biochemical, turbidity, single point, plate reader | inhibition, % at 10 µM | 350,000 tested, 0.052% active | Protein disulfide-isomerase (Homo sapiens), P07237 | PDI insulin aggregation turbidity, A650, 90 min;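 active = mean inhibition across replicates of 30% or more, whatever share of single replicates reach that level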
# AlphaScreen ctr: AlphaScreen signal interference compounds, dose response, artefact control for ARNT-TACC3 interaction inhibitor project, biochemical, luminescence, cherry-pick; shares compounds with ARNT-TACC3 inh; His-ARNT PASB-GST AlphaScreen artifact counter-screen; AC50, µM (highest dose often 68 µM), without a hit: top-dose activity change, negative = signal decrease; 1,200 tested, 50% active; AID 651705, 2012;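 active = every separate test run was called active for a drop in luminescence, with AC50 within twice the top valid dose, actives reach about 71 µM in these data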
# An asterisk follows results filed as active; / = no result; [ ] = dose if it differs, or a comment.
1: CCC(=O)N1C[C@H](C)[C@@H](OC)CN(C)C(=O)c2cc(NC(=O)Nc3ccccc3)ccc2OC[C@H]1C
2: COc1ccc2c3c(n(C)c2c1)[C@@H](CO)N(Cc1ccccc1OC)CC31CN(C)C1
3: CC(C)NC(=O)Nc1ccc2c(c1)CC(=O)N([C@@H](C)CO)C[C@H](C)[C@@H](CN(C)S(=O)(=O)c1cccs1)O2
4: C[C@H](CO)N1C[C@H](C)[C@H](CN(C)C(=O)NC2CCCCC2)Oc2ccc(NS(=O)(=O)c3cccs3)cc2CC1=O
5: CC(C)NC(=O)Nc1ccc2c(c1)CC(=O)N([C@H](C)CO)C[C@H](C)[C@H](CN(C)S(=O)(=O)c1cccs1)O2
6: COc1ccc2c3c(n(C)c2c1)[C@@H](CO)N(C(=O)C1CC1)CC31CCN(C(=O)Nc2cccc(F)c2)CC1

Compound | 1 | 2 | 3 | 4 | 5 | 6
ERp5 block | -1.2 | 0.0 | -2.7 | 1.0 | 5.8 | -1.7
ARNT-TACC3 inh | -2.4 | / | -17.5 | 59.1* | 107.7* | /
AlphaScreen ctr | / | / | / | -0.5%[42 µM] | -10.2%[38 µM] | /
Yeast UUG start | 5.0 | / | 3.2 | 17.2 | 22.1 | /
PglD inh | -1.4 | / | 2.2 | -2.0 | 1.1 | /
FGF22 binding | -0.1 | -0.1 | 0.7 | 0.1 | -0.3 | -0.4
PDI turbidity | / | / | / | / | / | /

7: c1ccc(-c2noc(-c3ccco3)n2)nc1
8: c1ccc(-c2nccc(-c3ccco3)n2)nc1
9: COc1ccc(S(=O)(=O)N(C)C[C@@H]2Oc3ccc(NC(=O)CCN4CCOCC4)cc3C(=O)N([C@@H](C)CO)C[C@H]2C)cc1
10: COc1ccc(-c2ccc3n(c2=O)C[C@H]2N[C@@H]3[C@@H](C(=O)N3CCCCC3)[C@@H]2CO)cc1
11: O=C(Nc1ccc2ccccc2n1)c1cc(-c2ccccc2)on1
12: Cc1cccc(NC(=O)c2cc(-c3ccccc3)on2)n1

Compound | 7 | 8 | 9 | 10 | 11 | 12
ERp5 block | / | 2.2 | 2.4 | -2.5 | / | /
ARNT-TACC3 inh | / | 59.2* | -8.8 | / | / | /
AlphaScreen ctr | / | 56.5µM* | / | / | 2.6%[38 µM] | 3.0%[38 µM]
Yeast UUG start | -23.5 | -24.2 | 7.8 | / | / | /
PglD inh | 3.2 | -7.6 | -1.3 | / | / | /
FGF22 binding | / | -0.1 | 0.0 | / | / | /
PDI turbidity | 5.4 | -3.3 | / | / | / | /

13: Cc1cc(NC(=O)c2cc(-c3ccccc3)on2)no1
14: Cn1c(NC(=O)c2cc(-c3ccccc3)on2)nc2ccccc21
15: O=C(CNCc1ccccn1)Nc1ccc([N+](=O)[O-])cc1C(=O)Nc1ccccc1F
16: COc1ccc(C2=C(C)CC(C)(C)NC2=O)cc1OC
17: C[C@@H]1CN([C@H](C)CO)C(=O)CCCn2cc(nn2)CO[C@H]1CN(C)Cc1cccc(O)c1
18: O=C(C[C@H]1C[C@H]2c3cc(NC(=O)NC4CCCCC4)ccc3O[C@H]2[C@H](CO)O1)NCc1ccccc1

Compound | 13 | 14 | 15 | 16 | 17 | 18
ERp5 block | / | / | -1.1 | / | 4.4 | 5.0
ARNT-TACC3 inh | -3.8 | / | 61.9* | active | -7.2 | active
AlphaScreen ctr | / | -9.0%[38 µM] | 28.2µM* | 5.0% | / | 1.3%[38 µM]
Yeast UUG start | -7.4 | / | -33.9 | 3.0 | / | 16.1
PglD inh | 1.6 | / | -5.4 | -1.0 | -1.5 | 2.0
FGF22 binding | / | / | -0.2 | / | -0.3 | 0.3
PDI turbidity | -4.7 | / | -3.0 | -0.6 | / | /

# Screen by screen, from the results shown:
# Compounds 13 to 16 in PDI turbidity: -4.7, /, -3.0, -0.6

# One compound at a time, from the list above.
# Record of COc1ccc(C2=C(C)CC(C)(C)NC2=O)cc1OC = ERp5 block: /; ARNT-TACC3 inh: active; AlphaScreen ctr: 5.0%; Yeast UUG start: 3.0; PglD inh: -1.0; FGF22 binding: /; PDI turbidity: -0.6
# Record of O=C(CNCc1ccccn1)Nc1ccc([N+](=O)[O-])cc1C(=O)Nc1ccccc1F = ERp5 block: -1.1; ARNT-TACC3 inh: 61.9*; AlphaScreen ctr: 28.2µM*; Yeast UUG start: -33.9; PglD inh: -5.4; FGF22 binding: -0.2; PDI turbidity: -3.0

# More records
19: O=C(C[C@@H]1C[C@H]2c3cc(NC(=O)NC4CCCCC4)ccc3O[C@H]2[C@@H](CO)O1)NCc1ccccc1
20: COCC(=O)N1C[C@H](C)[C@@H](OC)CN(C)C(=O)c2ccc(NC(=O)c3cc(C)on3)cc2OC[C@H]1C
21: COC(=O)c1[nH]c2ccc(C)cc2c1NC(=O)c1ccccc1[N+](=O)[O-]
22: COC(=O)c1[nH]c2ccc(Cl)cc2c1NC(=O)c1ccccc1[N+](=O)[O-]
23: O=C(CCN1C(=O)c2cccnc2C1=O)NC1CCCCCC1
24: CC(C)NC(=O)N1[C@H](CO)[C@@H]2c3ccccc3NC[C@@H]21

Compound | 19 | 20 | 21 | 22 | 23 | 24
ERp5 block | 1.0 | -2.5 | / | / | / | -2.4
ARNT-TACC3 inh | -11.5 | -1.5 | 54.3* | -2.7 | 59.2* | active
AlphaScreen ctr | / | / | -6.2% | / | -13.0% | -5.5%[42 µM]
Yeast UUG start | 0.0 | -9.7 | / | / | -0.2 | 12.1
PglD inh | -1.0 | -5.4 | / | / | -3.9 | 6.8
FGF22 binding | -0.1 | 0.0 | / | / | / | 0.0
PDI turbidity | / | / | 2.4 | -0.8 | 1.6 | /

# Screening data from PubChem.
